{"source": "patent US20170240632A1", "about": "“COMPOSITIONS AND METHODS FOR IDENTIFYING AND TREATING CACHEXIA OR PRE-CACHEXIA” (THE BROAD INSTITUTE INC., priority 2014, published 2017)", "system": "RAGE ligands", "assay": "Depletion of conditioned media by soluble RAGE receptor (FIG. 22)", "conditions": "eluate reconstitutes cachexia activity"}
{"substance": "soluble RAGE receptor: negative regulator of RAGE signaling that acts as a sink for RAGE ligands", "values": [{"measurement": "depletion of cachexia activity from conditioned media", "value": "depletes conditioned media of cachexia activity"}]}
